Compound activity as filed in PubChem BioAssay.
LMNA splice mod: modulators of lamin A splicing; HeLa LMNA splicing GFP/RFP minigene ratio, 48 h; Potency, µM (highest dose often 46.1 µM), inactives show at the top dose ratio change, negative = inhibition, usual class: inhibitors; hit rate 0.01% among 200,000; active = well fitted inhibition curve with a large enough effect in the signal ratio, with a control signal flat, not every such curve was filed as active; inconclusive = small, poorly fitted or top-dose-only effect, or effect the other way, or a change in a side signal; the % refers to the signal ratio; also: potency is read from the fitted curve at half-maximal effect; % is scaled to controls: 0 for no effect and ±100 for the full control effect
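Read-out is the ratio of GFP to DsRed2 object intensity, acquired by 488 nm laser-scanning cytometry on HeLa lamin A-EGFP minigene reporter cells. Compound incubation 48 hrs at 37 °C in Opti-MEM with 2% FBS; DMSO 0.5% final.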
Sfp PPTase inh: Sfp phosphopantetheinyl transferase inhibition | Q9F4F7 | Biochemical Sfp PPTase activity, qHTS | Potency, µM, inactives show max response, negative = inhibition, usual class: inhibitors | actives 3.5% (n = 310,000) | AID 1490; active = well fitted inhibition curve with a large enough effect; inconclusive = small, poorly fitted or top-dose-only effect, or another doubt; inactive = no such curve, though single readings can be large or run the other way;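 also: the enzyme is Sfp with the accession as filed and its product quenches rhodamine fluorescence; potency is read from the fitted curve at half-maximal effect; 0% = enzyme reaction without inhibitor and -100% = no enzyme wells; top concentration of the series not given in the record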
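Fluorescence-quenching assay with 15 nM Sfp, 5 uM rhodamine-CoA and 12.5 uM BHQ-2-labelled ybbR peptide in pH 7.6 Hepes/MgCl2 buffer. Enzyme was pre-incubated with compound for 15 min at room temperature. Rate was taken from the 30-min fluorescence change (525/598 nm).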
miR-21 reporter: miR-21 reporter, rising signal | HeLa miR-21 FLuc reporter, luciferase, 48 h | Potency, µM (top dose mostly 38.3 µM), inactives show at the highest dose reporter change, positive = more light | 340,000 tested, under 10 active | AID 2288; active = well fitted rising curve with a large enough effect; inconclusive = small, poorly fitted or top-dose-only effect; inactive = no such curve, though single readings can be large or run the other way;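 note: % of control where 0% means no effect; miR-21 action dims this reporter so a rising signal means less miR-21 action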
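HeLa cells stably expressing CMV-driven firefly luciferase with a downstream miR-21 binding sequence, endogenously expressing miR-21, were treated with titrations (up to about 40uM final) for 48 hours at 37 degree Celsius. Luciferase luminescence was read after lysis.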
KDM4E inh: JMJD2E (human) inhibition; hit rate 1.6% among 230,000; JMJD2E catalytic domain, FDH-coupled NADH fluorescence (FDH is formaldehyde dehydrogenase); B2RXH2; Potency, µM (top dose mostly 57.1 µM), without a hit: top-dose activity change, negative = inhibition, hits mostly inhibitors; active = well fitted inhibition curve with a large enough effect, not every such curve was filed as active; inconclusive = small, poorly fitted or top-dose-only effect, or another doubt; inactive = no such curve, though single readings can be large or run the other way;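 also: potency is read from the fitted curve at half-maximal effect; 0% = wells with enzyme and -100% = buffer wells without enzyme; nearly all actives have a fitted effect of over 50% in size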
G9a block: blocks human histone lysine methyltransferase G9a; hit rate 8.8% among 350,000; AID 504332; Q96KQ7; G9a H3K9 monomethylation, AlphaScreen, 2 h; Potency, µM (top dose mostly 102 µM), inactives show top-dose activity, negative = inhibition, actives largely listed as inhibitors; also: potency is read from the fitted curve at half-maximal effect; % is scaled to controls: 0 for no effect and ±100 for the full control effect; nearly all actives have a fitted effect of over 75% in size
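Using a bead-based AlphaScreen, monomethylated H3K9 product from 2 h room-temperature reactions (G9a 20 nM, peptide 500 nM, SAM 20 uM) was detected with 0.5 ug/mL rabbit anti-H3K9me1 antibody.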
ALDH1A1 block: ALDH1A1 (human) enzyme inhibition. P00352. Purified ALDH1A1, NADH fluorescence, propionaldehyde substrate. Potency, µM (top dose mostly 75.3 µM), for the others: top-dose activity, negative = inhibition, actives largely listed as inhibitors. hit rate 7.3% among 220,000. AID 1030; active = well fitted inhibition curve with a large enough effect, not every such curve was filed as active; inconclusive = small, poorly fitted or top-dose-only effect, or another doubt; inactive = no such curve, though single readings can be large or run the other way;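 also: potency is read from the fitted curve at half-maximal effect; plate controls were no enzyme wells and a reference inhibitor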
The depositor's hits bear a star; ! = a repeat was not active; [ ] = dose if it differs, or a comment. Only some compounds are listed: those with a hit (about 13% of all), similar ones and a draw of the others. Unless noted, calls follow the shape of the dose curve; as a rule, active = well fitted curve in the direction sought with a large enough effect; inconclusive = small, poorly fitted or top-dose-only effect, or another doubt; inactive = no such curve, though single readings can be large; an effect the other way counts as inactive or inconclusive.

How did Cc1cc(N2CCC(C)CC2)nc2ccc(NC(=O)CCC(=O)N3CCN(c4ccccc4F)CC3)cc12 do in these assays?
miR-21 reporter: 17%; G9a block: -2%[59 µM]

What do the screens show for `CN(C)c1ccc(C2C3=C(CCCC3=O)OC3=C2C(=O)CCC3)cc1`?
LMNA splice mod: -2%; Sfp PPTase inh: -16%; miR-21 reporter: -7%; KDM4E inh: -15%; G9a block: inconclusive; ALDH1A1 block: inconclusive

Results for CN(C)c1ccc(/C=C2\CCCCC2=O)cc1 ?
LMNA splice mod: -10%; Sfp PPTase inh: 0%; miR-21 reporter: -63%; KDM4E inh: -4%; G9a block: 50µM*; ALDH1A1 block: -10%

How did CC(=O)Nc1ccc(S(=O)(=O)NC2=NCN(C(C)C)CN2)cc1 do in these assays?
miR-21 reporter: 7%; G9a block: -11%[59 µM]

What do the screens show for `CCn1nnnc1NCc1ccc(N2CCCC2)cc1`?
LMNA splice mod: 3%; Sfp PPTase inh: inconclusive; miR-21 reporter: -12%; KDM4E inh: -2%; G9a block: inconclusive; ALDH1A1 block: 35µM*

What do the screens show for `COc1ccc(CNC(=O)CN2C(=O)C3CCCN3c3ncc(Cl)cc32)cc1` (stereo not drawn)?
LMNA splice mod: 10%; Sfp PPTase inh: 20%; miR-21 reporter: 2%; KDM4E inh: inconclusive; G9a block: inconclusive; ALDH1A1 block: inconclusive

Results for O=C(CN1C(=O)C2CCCN2c2ncc(Cl)cc21)NCc1ccc2c(c1)OCO2 (stereo not drawn) ?
LMNA splice mod: 15%; Sfp PPTase inh: 5%; miR-21 reporter: 3%; KDM4E inh: 14µM*; G9a block: 24%[59 µM]; ALDH1A1 block: inconclusive

Results for CCc1ccccc1NC(=O)CN1C(=O)C2CCCN2c2ncc(Cl)cc21 (stereo not drawn) ?
LMNA splice mod: -10%; Sfp PPTase inh: -1%; miR-21 reporter: -1%; KDM4E inh: -7%; G9a block: inconclusive; ALDH1A1 block: 18µM*

How did COc1ccc(CNC(=O)CCc2nnc3n(C)c(=O)c4sccc4n23)cc1 do in these assays?
miR-21 reporter: 0%; G9a block: -11%[59 µM]

What do the screens show for `CCOc1ccccc1C(=O)N/N=C/c1cccc2cccnc12`?
LMNA splice mod: 6%[0.0737 µM]; Sfp PPTase inh: 89µM*; miR-21 reporter: 7%; KDM4E inh: -25%; G9a block: 43%[0.501 µM]; ALDH1A1 block: -35%

How did CCOc1ccc(C(=O)N/N=C/c2cccc3cccnc23)cc1 do in these assays?
LMNA splice mod: inconclusive; Sfp PPTase inh: -8%; miR-21 reporter: 10%; KDM4E inh: inconclusive; G9a block: 22%[59 µM]; ALDH1A1 block: -3%

How did CC(C)NC(=O)c1ccc(Cn2c(SCC(N)=O)nc3ccccc3c2=O)cc1 do in these assays?
LMNA splice mod: -13%[46 µM]; miR-21 reporter: -14%; G9a block: 5%[59 µM]

How did COc1cc(CNn2cn[nH]c2=S)ccc1OCC(=O)NC(C)(C)C do in these assays?
Sfp PPTase inh: -19%; miR-21 reporter: -4%; G9a block: 18µM*

How did COc1cc(CNC(C)(C)C)cc(Br)c1OCc1cccs1 do in these assays?
LMNA splice mod: -9%; Sfp PPTase inh: 9%; miR-21 reporter: -1%; KDM4E inh: 11%; G9a block: -1%[59 µM]; ALDH1A1 block: 18%

How did C=CCOc1c(Br)cc(CNn2c(C)n[nH]c2=S)cc1OC do in these assays?
Sfp PPTase inh: -14%; miR-21 reporter: -6%; G9a block: 11µM*

Results for COc1cc(CNn2c(C)n[nH]c2=S)cc(Br)c1OCC(=O)NC(C)(C)C ?
Sfp PPTase inh: -6%; miR-21 reporter: 0%; G9a block: 4µM*

Results for COc1cc(CNn2c(C)n[nH]c2=S)cc(Cl)c1OCC(=O)NC(C)(C)C ?
Sfp PPTase inh: -7%; miR-21 reporter: -11%

Results for C=CCOc1c(Br)cc(CNc2nccs2)cc1OC ?
LMNA splice mod: -17%; Sfp PPTase inh: -9%; miR-21 reporter: -10%; KDM4E inh: -3%; G9a block: 11µM*; ALDH1A1 block: inconclusive

What do the screens show for `COc1cc(CNC(C)(C)CO)ccc1OCC(=O)NC(C)(C)C`?
LMNA splice mod: -5%; Sfp PPTase inh: 11%; miR-21 reporter: -8%; KDM4E inh: -6%; G9a block: -2%[59 µM]; ALDH1A1 block: 5%

What do the screens show for `CC(OC(=O)C1CCCCC1)C(=O)Nc1ccc(S(N)(=O)=O)cc1` (stereo not drawn)?
G9a block: 19%[12.7 µM]

How did CC1CCN(CCc2nc3cc(NC(=O)COc4ccc(Cl)cc4)ccc3n2C)CC1 do in these assays?
Sfp PPTase inh: 21%; miR-21 reporter: -2%; G9a block: 48%

What do the screens show for `CC(=O)Oc1ccc2c(=O)c(Oc3ccccc3)coc2c1OC(C)=O`?
LMNA splice mod: inconclusive; Sfp PPTase inh: inconclusive; miR-21 reporter: 17%; KDM4E inh: 3.5µM*; G9a block: 8.9µM*; ALDH1A1 block: -14%

How did CC(=O)NCCNc1nc(-c2ccccc2Cl)nc2ccccc12 do in these assays?
LMNA splice mod: -6%; Sfp PPTase inh: 0%; KDM4E inh: -25%; ALDH1A1 block: inconclusive

Results for CC1=C(C(=O)O)N2C(=O)C(NC(=O)C(N)c3ccc(O)cc3)C2SC1 (stereo not drawn) ?
Sfp PPTase inh: -82%; KDM4E inh: -14%; G9a block: -29%[2.33 µM]; ALDH1A1 block: -7%

How did NC(C(=O)N[C@@H]1C(=O)N2C(C(=O)O)=C(Cl)CS[C@H]12)c1ccccc1 (stereo partly drawn) do in these assays?
LMNA splice mod: inconclusive; KDM4E inh: inconclusive; G9a block: 2.4µM*!; ALDH1A1 block: inconclusive

Results for CC1=C(C(=O)O)N2C(=O)C(NC(=O)c3ccccc3Cl)C2SC1 (stereo not drawn) ?
Sfp PPTase inh: 8.9µM*; miR-21 reporter: -3%; G9a block: 1.8µM*

What do the screens show for `CC1=C(C(=O)O)N2C(=O)C(NC(=O)c3nn(C)cc3Cl)C2SC1` (stereo not drawn)?
LMNA splice mod: -2%; Sfp PPTase inh: 40µM*; miR-21 reporter: 2%; KDM4E inh: -3%; G9a block: inconclusive; ALDH1A1 block: 11%

Results for CC(=O)OCC1=C(C(=O)O)N2C(=O)C(NC(=O)c3ccc(COc4cccc(Cl)c4Cl)o3)C2SC1 (stereo not drawn) ?
LMNA splice mod: 20%[9.22 µM]; Sfp PPTase inh: -21%; miR-21 reporter: -5%; KDM4E inh: 5%; G9a block: 32µM*; ALDH1A1 block: inconclusive

How did COc1cccc(C(=O)NC2C(=O)N3C(C(=O)O)=C(COC(C)=O)CSC23)c1 (stereo not drawn) do in these assays?
G9a block: -10%[12.7 µM]

3 records drawn at random from the list so far:
How did COc1cc(CNn2cn[nH]c2=S)ccc1OCC(=O)NC(C)(C)C do in these assays?
Sfp PPTase inh: -19%; miR-21 reporter: -4%; G9a block: 18µM*

How did COc1cccc(C(=O)NC2C(=O)N3C(C(=O)O)=C(COC(C)=O)CSC23)c1 (stereo not drawn) do in these assays?
G9a block: -10%[12.7 µM]

Results for O=C(CN1C(=O)C2CCCN2c2ncc(Cl)cc21)NCc1ccc2c(c1)OCO2 (stereo not drawn) ?
LMNA splice mod: 15%; Sfp PPTase inh: 5%; miR-21 reporter: 3%; KDM4E inh: 14µM*; G9a block: 24%[59 µM]; ALDH1A1 block: inconclusive
